As a reminder, the EC50 is the concentration giving half of the maximal effect. The low end stands for higher potency in that assay, the high end for lower potency in that assay.

Each structure is given as a SMILES string.

From BindingDB's records for 14684324 come the findings set out here.

The target in one assay is Nociceptin receptor (Homo sapiens, UniProt P41146). Briefly: Concentration required to stimulate [35S]GTP-gamma-S, binding to human NOP receptor in cell membrane. (GTPγS is a poorly hydrolysed GTP analogue; its binding reports G protein activation.)
Assay [1] has as its target Kappa-type opioid receptor (Homo sapiens, UniProt P41145). Briefly: Concentration required to stimulate [35S]GTP-gamma-S, binding to human opioid receptor kappa 1 in cell membrane.
The target in the next assay is Mu-type opioid receptor (Homo sapiens, UniProt P35372). Briefly: Concentration required to stimulate [35S]GTP-gamma-S, binding to human opioid receptor mu 1 in cell membrane.

In the case of `O=c1[nH]c2ccccc2n1[C@H]1CCN2[C@H](CCC[C@H]2C2CCCCC2)C1`, the EC50 (at Nociceptin receptor; in assay [1]; on Mu-type opioid receptor) was above 10 µM in each case.
On to `O=c1[nH]c2ccccc2n1[C@@H]1CCN2[C@H](CCC[C@H]2C2CCCCC2)C1`, for which the concentration giving a half-maximal response (EC50) was 0.678 µM at Nociceptin receptor, 0.021 µM in assay [1] and above 10 µM on Mu-type opioid receptor.
